ChEMBL document CHEMBL4342468, “Evolution of a 4-Benzyloxy-benzylamino Chemotype to Provide Efficacious, Potent, and Isoform Selective PPARα Agonists as Leads for Retinal Disorders” (J Med Chem, 2020)

Tests used:
[1] = species on record: Homo sapiens; assay: Selectivity index, ratio of EC50 for human PPARdelta expressed in nonhuman mammalian cells to EC50 for human PPARalpha expressed in nonhuman mammalian cells measured after 22 to 24 hrs by luciferase reporter gene assay; assay type: cell-based
In short: (§1)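 Reporter cells (non-human mammalian) expressing human PPARα, γ or δ linked to a luciferase reporter were pre-incubated 4–6 h at 37 °C, 5% CO2 in medium with 10% charcoal-stripped FBS. They were then exposed to compound in screening medium for 22–24 h, and luminescence was read. […] SI = EC50(PPARγ or δ)/EC50(PPARα).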

[2] = species on record: Homo sapiens; assay: Selectivity index, ratio of EC50 for human PPARgamma expressed in nonhuman mammalian cells to EC50 for human PPARalpha expressed in nonhuman mammalian cells measured after 22 to 24 hrs by luciferase reporter gene assay; assay type: cell-based; in short: as §1

## COc1ccc(COc2ccc(CNc3cccc(C(=O)O)c3)cc2)cc1
[1]
  Ratio EC50: > 20
[2]
  Ratio EC50: > 20
